Measurements reported in PMC10712105 (Journal of Translational Medicine, 2023).

Tested on: SK-LMS-1 xenograft tumors
Format: in vivo, SCID mice
Design: Estimate of tumor volume difference vs Vehicle: unit not given here
Details: Day 9
Experimental: SK-LMS-1 cell line (HTB-88) was purchased from ATCC. […] Equal number (12) of female and male mice were used in this experiment. […] The intended schedule for drug or vehicle treatment was weekly for 3 doses. However, mice in groups 2 and 5 with DOX at 5 mg/kg after 2 doses lost > 20% BW, indicating severe toxicity. […] One male mouse from group 6 had some health issues early on and was sacrificed on Day 14.
A mixed linear regression model was made with tumor volume as the outcome on day 2, 6, and 9. The model tested for group differences adjusted for time, day 0 volume, and sex. There was a within animal correlation modeled using a random intercept. […] A significant interaction between group and time was found (type III F test p<0.0001) along with significant group differences (the group differences varied depending on day). Sex differences were not significant (type III F test p=0.9124). There was a significant difference in average tumor volume at starting on day 2 between SPESN38-8 and vehicle (p=0.0212). On day 9 all three group comparisons were significant after adjustment for multiplicity (p<0.0001 for all). […] The black color columns are within group at between days, the red columns are between group at each day.
Furthermore, tumor weight, summary of tumor weight in three groups for vehicle, DOX, and SPESN38-8 at their ending days are shown in Table S10. […]

COc1cccc2c1C(=O)c1c(O)c3c(c(O)c1C2=O)C[C@@](O)(C(=O)CO)C[C@@H]3O[C@H]1C[C@H](N)[C@H](O)[C@H](C)O1 [DOX, doxorubicin]
slowing of tumor growth rate in TV relative to the control group (DOX 5 mg/kg): ~ 2 X
Estimate of tumor volume difference vs Vehicle (mixed linear regression model, Tukey-Kramer pairwise test): -361.96
